Reference: article PMC9073949 (Crystal Growth & Design, 2022)

Test: Insulin crystallization kinetics (desupersaturation, induction time, crystal yield)
Assay type: physicochemical
Conditions: pH 6.2, initial supersaturation ratio increased from 5.6 to 10.0
Description: Precise temperature control was achieved by using incubators held at a constant temperature. Citric acid buffer (0.1 M) was prepared at different pH levels by varying the ratio between citric acid and tri-sodium citrate. The pH was determined using a Jenway 4330 pH and conductivity meter (Jenway, UK) with an instrument resolution of around ±0.02 pH units. Zinc sulfate (ZnSO4), zinc chloride (ZnCl2), or zinc acetate (ZnAc) were dissolved in citric acid buffer as a zinc salt stock solution. […] Each experimental condition was repeated multiple times, and the error bars represent the deviation between these repetitions. The desupersaturation (crystallization occurs and the solution concentration decreases) was monitored by measuring the UV–vis absorption at a wavelength of 280 nm with a NanoDrop One^c microvolume UV–vis spectrophotometer (Thermo Fischer Scientific, USA). A sample as small as 10–20 μL was withdrawn from the crystallizer (Eppendorf tube) and was centrifuged (6000 rpm, 10–20 min). […] An extinction coefficient of 1.04 mL·mg^–1·cm^–1 was utilized.[32] Multiple dilutions for every sample were made to minimize dilution errors. […]
The crystal yield was calculated to evaluate the performance of crystallization. […]

Human insulin
reduction in induction time: 75%
